Measured values taken from US10961231B2, “NTCP inhibitors” (National Institute of Biological Sciences, Beijing, priority 2018, dated 2021).

Amino acid sequences for entries named in this document (tags omitted).
UniProt Q14973, whole entry: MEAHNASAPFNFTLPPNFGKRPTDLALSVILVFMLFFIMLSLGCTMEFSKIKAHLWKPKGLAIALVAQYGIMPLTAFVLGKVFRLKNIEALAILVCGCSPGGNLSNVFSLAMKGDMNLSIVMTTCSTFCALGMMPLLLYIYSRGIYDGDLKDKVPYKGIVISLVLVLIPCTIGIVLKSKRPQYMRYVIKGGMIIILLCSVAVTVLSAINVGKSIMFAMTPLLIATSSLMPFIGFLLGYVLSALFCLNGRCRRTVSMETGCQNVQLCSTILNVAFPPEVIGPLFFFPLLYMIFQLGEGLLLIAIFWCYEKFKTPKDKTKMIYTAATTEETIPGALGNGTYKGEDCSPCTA

Molecular target: NTCP (Homo sapiens, UniProt Q14973)
Assay: [3H]-TCA uptake assay (NTCP inhibition)
Type: cell-based
Details: given as a range; assay not given
Description: [^3H]-TCA uptake assay. PTH and HepG2-NTCP cells were cultured in PMM for 24 hours to induce NTCP expression. After treated by DMSO or test compounds for 2 hours, the cells were then incubated with 1 μM [^3H]-taurocholate acid dissolved in Na^+ Ringer's buffer (the concentration of Na was 145 mM) for 15 minutes at 37° C. Subsequently, the cells were washed once in phosphate-buffered saline (PBS) and lysed in 50 μL 1% TritonX-100 in H2O for 5 minutes at room temperature. The lysate were totally transferred into a liquid scintillation 96 well plate and mixed with 200 μL liquid scintillation cocktail (Ultima Gold XR, PerkinElmer). Liquid scintillation counting was performed on a PerkinElmer 1450 LSC liquid scintillation counter.

SMILES | IC50
CC[C@@H]1NC(=O)[C@H]([C@@H]2OC(OCc3cc(Cl)ccc3Cl)C[C@H]2C)N(C)C(=O)[C@H](C(C)C)N(C)C(=O)[C@H](CC(C)C)N(C)C(=O)[C@H](CC(C)C)N(C)C(=O)[C@@H](C)NC(=O)[C@H](C)NC(=O)[C@H](CC(C)C)N(C)C(=O)[C@H](C(C)C)NC(=O)[C@H](CC(C)C)N(C)C(=O)CN(C)C1=O (single isomer, unassigned) | 1 to 1000 nM
CC[C@@H]1NC(=O)[C@H]([C@@H]2OC(OCc3ccc(Cl)c(Cl)c3)C[C@H]2C)N(C)C(=O)[C@H](C(C)C)N(C)C(=O)[C@H](CC(C)C)N(C)C(=O)[C@H](CC(C)C)N(C)C(=O)[C@@H](C)NC(=O)[C@H](C)NC(=O)[C@H](CC(C)C)N(C)C(=O)[C@H](C(C)C)NC(=O)[C@H](CC(C)C)N(C)C(=O)CN(C)C1=O (single isomer, unassigned) | 1 to 1000 nM
CC[C@@H]1NC(=O)[C@H]([C@@H]2OC(O[C@H](C)c3cc(Cl)cc(Cl)c3)C[C@H]2C)N(C)C(=O)[C@H](C(C)C)N(C)C(=O)[C@H](CC(C)C)N(C)C(=O)[C@H](CC(C)C)N(C)C(=O)[C@@H](C)NC(=O)[C@H](C)NC(=O)[C@H](CC(C)C)N(C)C(=O)[C@H](C(C)C)NC(=O)[C@H](CC(C)C)N(C)C(=O)CN(C)C1=O (single isomer, unassigned) | 1 to 1000 nM
